Source: US20100151566A1

Sequences of proteins named here, by UniProt entry; tags and fusion partners are left off. A line that says so, or that is headed by a name, gives the form on record, which may keep a tag or linker.
UniProt P15692, other isoform, or with tags, fused parts or gaps: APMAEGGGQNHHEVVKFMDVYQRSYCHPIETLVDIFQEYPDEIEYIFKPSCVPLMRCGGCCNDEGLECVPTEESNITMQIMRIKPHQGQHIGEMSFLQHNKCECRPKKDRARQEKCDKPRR

Key:
[1] = target: Isoform 121 of human VEGF-A (Peprotech) (human) (UniProt P15692); experiment: ELISA on coated antigen, 2 µg/mL
[2] = target: Isoform 121 of human VEGF-A (Peprotech) (human) (UniProt P15692); experiment: ELISA on coated antigen, 20 µg/mL
[3] = target: Isoform 121 of human VEGF-A (Peprotech) (human) (UniProt P15692); experiment: ELISA on coated antigen, 0.2 µg/mL

absorbance at 492 nm [1]: 2.91 OD 492 nm
absorbance at 492 nm [2]: 3.2 OD 492 nm
absorbance at 492 nm [3]: 1.89 OD 492 nm
Substance: Bevacizumab (Avastin, Genentech) (antibody)
